# Earlier results as cited in patent US20110256229A1, “RAPID-ACTING PHARMACEUTICAL COMPOSITION” (published 2011).
# This is a selection: effects in other tests are not listed, and their absence says nothing.
# Details: lozenge, transbucchal; Farrar et al. 1998
compound,measurement,value
CCC(=O)N(c1ccccc1)C1CCN(CCc2ccccc2)CC1,Time to peak plasma concentrations,around 20 minutes
